Measured values as given in article PMC8463277 (Acta Pharmaceutica Sinica. B, 2021).

Tested on: SKBR3 tumor xenograft
Assay: SKBR3 xenograft mouse model, antitumor study
Assay type: in vivo, BALB/c nude mice
Details: 8 mg/kg i.p.; followed until Day 24

trastuzumab
tumor volume after the last drug injection on Day 12: significant reduction in tumor volume
